According to patent publication US20050032187A1, “Novel peptide-forming enzyme, microbe producing the enzyme and method for producing peptide using them” (Ajinomoto Co., Inc., priority 2003, published 2005):
Residues, ends and D or L forms follow the SMILES beside them.

These molecules were tested on peptide-producing enzyme (Mono S fraction) of Empedobacter brevis strain FERM BP-8113 (assay: Production of L-alanyl-L-glutamine from L-alanine methyl ester and L-glutamine with enzyme fraction). Conditions: 3 μl enzyme fraction, 100 mM L-alanine methyl ester hydrochloride, 200 mM L-glutamine, pH 9.0, 18° C., enzyme-added lot.
Type: biochemical

| Molecule | concentration of by-product L-Ala-L-Ala-L-Gln [mM] |
| --- | --- |
| L-Ala-L-Ala-L-Gln | 1.3 |

The molecules below were run on peptide-producing enzyme (Mono S fraction) of Empedobacter brevis strain FERM BP-8113 (assay: Enzyme substrate specificity (peptide production)). Conditions: 100 mM L-alanine methyl ester hydrochloride, L-amino acid 150 mM, pH 9.0, 25° C., 3 hours.
Type: biochemical
Set-up: key to Formed peptide (mM): +: those peptides for which production was confirmed but which were unable to be quantified due to the absence of a standard; a trace amount

| Molecule | Formed peptide (mM) |
| --- | --- |
| C[C@H](N)C(=O)N[C@@H](CS)C(=O)O [L-Ala-L-CySH] (H-Ala-Cys-OH) | + |
| C[C@H](N)C(=O)N1CCC[C@H]1C(=O)O [L-Ala-L-Pro] (H-Ala-Pro-OH) | tr |

Same assay, conditions: L-amino acid methyl ester hydrochloride 100 mM, 150 mM L-glutamine, pH 9.0, 25° C., 3 hours; 0.1% Tween-80 with L-Trp-OMe and L-Tyr-OMe

| Molecule | Formed peptide (mM) | Formed peptide [mM] |
| --- | --- | --- |
| NC(=O)CC[C@H](NC(=O)[C@@H](N)CC(N)=O)C(=O)O [L-Asn-L-Gln] (H-Asn-Gln-OH) | + |  |
| NC(=O)CC[C@H](NC(=O)[C@@H](N)CS)C(=O)O [L-CySH-L-Gln] (H-Cys-Gln-OH) | + |  |
| NC(=O)CC[C@H](NC(=O)[C@@H](N)CCC(N)=O)C(=O)O [L-Gln-L-Gln] (H-Gln-Gln-OH) |  | 0.3 |
| NC(=O)CC[C@H](NC(=O)[C@@H](N)Cc1cnc[nH]1)C(=O)O [L-His-L-Gln] (H-His-Gln-OH) | + |  |
| CC(C)C[C@H](N)C(=O)N[C@@H](CCC(N)=O)C(=O)O [L-Leu-L-Gln] (H-Leu-Gln-OH) | + |  |
| NCCCC[C@H](N)C(=O)N[C@@H](CCC(N)=O)C(=O)O [L-Lys-L-Gln] (H-Lys-Gln-OH) | + |  |
| NC(=O)CC[C@H](NC(=O)[C@@H](N)Cc1ccccc1)C(=O)O [L-Phe-L-Gln] |  | 0.9 |
| NC(=O)CCC(NC(=O)C(N)Cc1c[nH]c2ccccc12)C(=O)O [L-Trp-L-Gln] (H-Trp-Gln-OH; configuration not given here) | + |  |
| NC(=O)CC[C@H](NC(=O)[C@@H](N)CC(=O)O)C(=O)O [α-L-Asp-L-Gln] (H-Asp-Gln-OH) | tr |  |
| NC(=O)CC[C@H](NC(=O)[C@@H](N)CCC(=O)O)C(=O)O [α-L-Glu-L-Gln] (H-Glu-Gln-OH) | + |  |
| NC(=O)CC[C@H](NC(=O)C[C@H](N)C(=O)O)C(=O)O [β-L-Asp-L-Gln] | tr |  |
| NC(=O)CC[C@H](NC(=O)CC[C@H](N)C(=O)O)C(=O)O [γ-L-Glu-L-Gln] | + |  |

Same assay, conditions: L-amino acid methyl ester hydrochloride 100 mM, L-amino acid 150 mM, pH 9.0, 25° C., 3 hours

| Molecule | Formed peptide [mM] |
| --- | --- |
| CSCC[C@H](NC(=O)[C@@H](N)CCCN=C(N)N)C(=O)O [L-Arg-L-Met] (H-Arg-Met-OH) | 0.7 |
| CC[C@H](C)[C@H](N)C(=O)N[C@@H](CCSC)C(=O)O [L-Ile-L-Met] (H-Ile-Met-OH) | 10.0 |
| CC(C)[C@H](NC(=O)[C@@H](N)[C@@H](C)O)C(=O)O [L-Thr-L-Val] (H-Thr-Val-OH) | 0.7 |
